Measurements: patent US10087215B2, “Stabilized SOS1 peptides” (DANA-FARBER CANCER INSTITUTE, INC., priority 2013, dated 2018)

Columns and labels:
wildtype KRAS = wildtype KRAS (Homo sapiens, UniProt P01116); test: Nucleotide (GTP) exchange assay with mant-GTP; assay type: biochemical; details: mant-GTP loaded KRAS, excess unlabeled GTP (10x)
Description: KRAS was loaded with equimolar mant-GTP (a fluorescent GTP analog), and excess unlabeled GTP (10×) is then added to the reaction mixture. The observed decrease in fluorescence reflects the GTP turnover activity at the KRAS active site. SAH-SOS peptides reduce the GTP turnover activity, as reflected by a shift of the curves from the no peptide negative control toward the inhibited exchange (2 mM MgCl2) positive control (FIG. 10).
Nucleotide exchange assays were performed as an association-dissociation experiment in which mant-GTP first associates with K-Ras followed by a dissociation step in which excess unlabeled GTP outcompetes mant-GTP, thus decreasing the fluorescence, as previously described^5. A kinetic readout of fluorescence, corresponding to the dissociation step, was recorded on a Tecan X1000 fluorescence spectrometer (excitation 360 nm, emission 440 nm). The rate of nucleotide exchange was determined by fitting a single exponential function to the dissociation phase readout from the experiment (Prism software, GraphPad). Reactions were performed with the indicated amounts of SAH-SOS peptides in buffer containing 25 mM Tris (pH 7.5), 50 mM NaCl, 1 mM DTT with 2 μM wildtype KRAS, 2 μM mantGTP and 200 μM unlabeled GTP. 2 mM MgCl2 was added as a […] to inhibit mantGTP release.

[1] = tested on: mouse embryonic fibroblasts; details: 0.5 μM FITC-conjugated peptide, 4 hours

CC[C@H](C)[C@H](NC(=O)CNC(=O)[C@H](Cc1ccccc1)NC(=O)[C@H](Cc1ccccc1)NC(=O)CCNC(=S)Nc1ccc2c(c1)C(=O)OC21c2ccc(O)cc2Oc2cc(O)ccc21)C(=O)N[C@@]1(C)CCCC=CCCC[C@@](C)(C(=O)N[C@@H](CC(C)C)C(=O)N[C@@H](CCCCN)C(=O)N[C@H](C(=O)N[C@@H](CCC(=O)O)C(=O)N[C@@H](CCC(=O)O)C(=O)NCC(=O)N[C@@H](CC(N)=O)C(=O)N[C@@H](CCCNC(=N)N)C(=O)N[C@@H](CCCNC(=N)N)C(N)=O)[C@@H](C)O)NC(=O)[C@H](CC(N)=O)NC(=O)[C@H]([C@@H](C)O)NC(=O)[C@H](CC(C)C)NC1=O [SAH-SOSC3, FFGIXLTNXLKTEEGNRR]
GTP exchange activity of KRAS (wildtype KRAS): reduce the GTP exchange activity of KRAS in vitro in a dose-responsive manner
cellular uptake [1]: cellular uptake
